Measured values published in PubChem BioAssay AID1273 (Columbia University Molecular Screening Center, 2008).
The list shows a part of the results, in another mix than the full data. The source made the active and inactive calls.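 The calls were made as follows: active = inhibition above the mean plus 3 SD, with well images judged a real hit on visual review (cut at about 60% in these data, passing the limit was not always enough); inconclusive = inhibition over the cutoff but images rejected on review; inactive = inhibition not above the cutoff.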

Experiment: insulin gene promoter suppression in islet cells – imaging, TRM-6 cells (human fetal islet line), eGFP reporter, cell count, primary screen (AID 1273)
Details: at 2 µM, stronger effect = higher value, reporter expression induced with tamoxifen

Structure (SMILES)	inhibition
COc1ccc(N/C(=N/P(=O)(N2CCOCC2)N2CCOCC2)N2CCOCC2)cc1	inactive: -45.5%
Cc1c2c(nc3ccccc13)SC(C(Cl)Cl)C2 (centres undefined)	inactive: -21.4%
O=C(OC1CN2CCC1CC2)C12CC3CC(CC(C3)C1)C2 (centres undefined)	inactive: -7.14%
CCN(CC)CCCOC(=O)C(O)(c1ccccc1)c1ccccc1	inactive: 6.67%
Cc1cc(=O)[nH]c(N[N+](=O)[O-])n1	inactive: 27.3%
COc1ccc2nc(NP(=O)(c3ccccc3)c3ccccc3)sc2c1	inactive: -25%
CCOC(=O)c1ccc(NP(C)(=O)Oc2ccccc2)cc1 (centres undefined)	inactive: 26.7%
ClCCSc1nnc(-c2cccnc2)o1	inactive: 12.9%
CCN(CC)C(=S)SC(NC=O)C(Cl)(Cl)Cl (centres undefined)	inactive: 32.6%
COc1ccc(OP(C)(=O)Nc2cccc(F)c2)cc1 (centres undefined)	inactive: -12.3%
CC(C)(C)c1ccc(OP(C)(=O)Nc2ccc(SC(F)(F)F)cc2)cc1 (centres undefined)	inactive: -7.41%
Cc1ccc2nc3c(c(C)c2c1)CC(C(Cl)Cl)S3 (centres undefined)	inactive: -19.4%
CP(=S)(Nn1cnnc1)Oc1ccccc1 (centres undefined)	inactive: 47.6%
COc1ccccc1OP(C)(=O)Nc1ccccc1 (centres undefined)	inactive: 0%
CP(=O)(Nc1ccccc1Br)Oc1ccccc1 (centres undefined)	inactive: 0%
CCOP(C)(=S)SCC(=O)NC(C)C(=O)O (centres undefined)	inactive: 0%
CCOC(=O)c1ccc(NP(C)(=O)Oc2ccc(OC)cc2)cc1 (centres undefined)	inactive: 18.4%
CCC(C)N(CC(C)C)C(=S)SC(NC(C)=O)C(Cl)(Cl)Cl (centres undefined)	inactive: -18.8%
CP(=O)(Nc1ccccn1)Oc1ccc(Cl)cc1 (centres undefined)	inactive: 48.6%
COP1(=S)c2c(C)nn(CCC#N)c2N=C(c2ccc(F)cc2)N1C (centres undefined)	inactive: -42.9%
CP(=O)(NC(=O)Nc1ccccc1)Oc1ccccc1 (centres undefined)	inactive: -18.2%
Cc1cc(C)cc(OP(C)(=O)Nc2ccc(SC(F)(F)F)cc2)c1 (centres undefined)	inactive: 29.6%
Cc1nc2ccc3ccccc3c2s1.O=[N+]([O-])c1cc([N+](=O)[O-])c(O)c([N+](=O)[O-])c1	inactive: 6.06%
CC1(CBr)Cn2c(nc3ccccc3c2=O)S1 (centres undefined)	inactive: 2.33%

Structure (SMILES)	inhibition
CN1CCCCC1COC(=O)C1(O)c2ccccc2CCc2ccccc21 (centres undefined)	inactive: 9.38%
COc1ccccc1OP(C)(=O)Nc1c(C)cccc1C (centres undefined)	inactive: -2.78%
CCCOc1ccc(NP(C)(=O)Oc2ccc(Cl)cc2)cc1 (centres undefined)	inactive: -33.3%
CP(=O)(Nc1ccc(SC(F)(F)F)cc1)Oc1ccccc1 (centres undefined)	inactive: 6.67%
Cc1ccc(OCC(=O)OC2CN3CCC2CC3)cc1 (centres undefined)	inactive: 7.89%
Cc1nn(-c2ccccc2)c2c1P(=O)(N1CCOCC1)N(C)C(c1ccccc1)=N2 (centres undefined)	inactive: -21.4%
COc1cc(C2NCCC3(OCCO3)C2(C)C)cc(OC)c1OC.O=[N+]([O-])c1cc([N+](=O)[O-])c(O)c([N+](=O)[O-])c1 (centres undefined)	inactive: 0%
O=[N+]([O-])c1ccc2c(c1)nnn2O	inactive: 39.3%
CCOP1(=S)c2c(C)nn(CCC#N)c2N=C(c2ccccc2F)N1C (centres undefined)	inactive: -3.57%
O=P(Nc1nccs1)(Oc1ccccc1)Oc1ccccc1	inactive: 15%
Cc1cc(C)cc(OP(C)(=O)Nc2ccccn2)c1 (centres undefined)	inactive: 6.67%
Cc1ccc(C)c(NP(C)(=O)Oc2ccccc2)c1 (centres undefined)	inactive: -37.8%
CCOP(=O)(Nc1cccc2ccccc12)OCC	inactive: -37.5%
COc1cc(C(=O)NCC2(N3CCOCC3)CCCCC2)cc(Cl)c1OC(C)C	inactive: -36.4%
Cc1cccc(OCC(=O)OC2CN3CCC2CC3)c1 (centres undefined)	inactive: -71.4%
Cc1cc(C)cc(OP(C)(=O)Nc2ccc(C)cc2C)c1 (centres undefined)	inactive: -71%
CCOC(=O)c1ccc(NP(C)(=O)Oc2cc(C)cc(C)c2)cc1 (centres undefined)	inactive: -2.78%
O=C(OCCN1CCN(CCOCc2ccccc2)CC1)C(O)(c1ccccc1)c1ccccc1	inactive: -69.2%
CC(C)(C)C(=O)NC(Sc1ccccc1)C(Cl)(Cl)Cl (centres undefined)	inactive: 44.2%
CCC(=O)N1C2C3N(C(=O)CC)C1C1N(C(=O)CC)C(C(N1C(=O)CC)N3C(=O)CC)N2C(=O)CC	inactive: -35.1%
CCN(CC)CCCOC(=O)C(O)(c1ccccc1)C1CCCCC1 (centres undefined)	inactive: 25%
COC(=O)c1cc2c(s1)N=C(c1ccccc1)N(C)P2(=O)N1CCOCC1 (centres undefined)	inactive: 9.09%
Cc1ccc(OP(=O)(Nc2ccccn2)Oc2ccc(C)cc2)cc1	inactive: 60%
CC(=O)NC(SC(=S)N(CC(C)C)CC(C)C)C(Cl)(Cl)Cl (centres undefined)	inactive: -294%

Structure (SMILES)	inhibition
CP(=O)(Nc1ccccc1)Oc1ccc(F)cc1 (centres undefined)	inactive: -17.1%
c1ccc(-c2nn[nH]n2)c(-c2nn[nH]n2)c1	inactive: 14.3%
COc1ccc(OP(C)(=O)Nc2ccc(SC(F)(F)F)cc2)cc1 (centres undefined)	inactive: -100%
CCOC(=O)c1ccc(NP(C)(=O)Oc2ccc(F)cc2)cc1 (centres undefined)	inactive: -14.3%
CC(=O)NC(SC(=S)N(C)C)C(Cl)(Cl)Cl (centres undefined)	inactive: 27.8%
C(Cc1nn[nH]n1)Cc1nn[nH]n1	inactive: 0%
CN(C)CCOC(=O)C(O)(c1ccccc1)C1CCCCC1 (centres undefined)	inactive: 33.3%
CP(=O)(Nc1ccc2c(c1)OCCO2)Oc1ccccc1 (centres undefined)	inactive: 4%
Cc1ccccc1NP(C)(=O)Nc1ccccc1C	inactive: 0%
O=P(Nc1nccs1)(c1ccccc1)c1ccccc1	inactive: 44.7%
CC(C)C(=O)NC(Sc1ccccc1)C(Cl)(Cl)Cl (centres undefined)	inactive: 2.04%
CCN(/C(=N/P(=O)(N1CCOCC1)N1CCOCC1)N1CCOCC1)c1ccc(OC)cc1	inactive: -21.4%
CP(=O)(Nc1ccc(Cl)cc1)Oc1ccc(F)cc1 (centres undefined)	inactive: 17.1%
COc1ccccc1OP(C)(=O)Nc1ccccc1Br (centres undefined)	inactive: -45.5%
CC(C)(C)c1ccc(OP(C)(=O)O)cc1	inactive: -95.7%
CC1CCN(C(=O)Oc2c(Cl)cc(Cl)c3cccnc23)CC1	inactive: -22.2%
CN(C)C(=O)c1c([N+](=O)[O-])cc([N+](=O)[O-])cc1[N+](=O)[O-]	inactive: 35.7%
CN(C)C(=O)OCCc1n(C)cc[n+]1C	inactive: 36.4%
CCN(CC)CC(O)COC(=O)C(O)(c1ccccc1)C1CCCCC1 (centres undefined)	inactive: 0%
COc1ccc(OP(C)(=O)Nc2ccc(Br)cc2)cc1 (centres undefined)	inactive: -24.3%
COc1ccc(C2=NCC(CBr)S2)cc1 (centres undefined)	inactive: 51.2%
O=[N+]([O-])c1cc([N+](=O)[O-])c(CCNc2ccccc2)c([N+](=O)[O-])c1	inactive: 35%
CCc1nc2c(n1)c1c(non1O)c1c2no[n+]1[O-]	inactive: 28.6%
CC(=O)N1C2C3N(C(C)=O)C1C1N(C(C)=O)C(C(N1C(C)=O)N3C(C)=O)N2C(C)=O	inactive: -10.8%

Structure (SMILES)	inhibition
O=[N+]([O-])c1cccc2n[nH]nc12	inactive: -64.3%
COc1ccccc1OP(C)(=O)Nc1c(C)n(C)n(-c2ccccc2)c1=O (centres undefined)	inactive: 0%
O=[N+]([O-])c1ncn(CCn2ncnc2[N+](=O)[O-])n1	inactive: 41.7%
CP(=O)(OC12CC3CC(CC(C3)C1)C2)OC12CC3CC(CC(C3)C1)C2	inactive: -17.1%
CCOC(=O)c1ccc(NP(C)(=O)Oc2ccc(Cl)cc2)cc1 (centres undefined)	inactive: 13.3%
Cc1nc2ccc3ccccc3c2o1.O=[N+]([O-])c1cc([N+](=O)[O-])c(O)c([N+](=O)[O-])c1	inactive: 41.9%
CCN(N=Nc1nonc1N)c1nonc1N	inactive: 0%
COc1ccc(OP(C)(=O)Nc2ccccc2Br)cc1 (centres undefined)	inactive: -47.1%
CCOP(=O)(Nc1ccccc1)OCC	inactive: -3.57%
COc1ccccc1OP(C)(=O)Nc1ccc(C)c(C)c1 (centres undefined)	inactive: -9.09%
Oc1ccccc1CNc1ccccn1	inactive: 0%
O=C(NC(Sc1ccncn1)C(Cl)(Cl)Cl)c1ccccc1 (centres undefined)	inactive: 26.7%
Cc1c(NP(C)(=O)Oc2ccc(C(C)C)cc2)c(=O)n(-c2ccccc2)n1C (centres undefined)	inactive: 19.4%
CC(C)CC(=O)NC(Sc1ccc(Cl)cc1)C(Cl)(Cl)Cl (centres undefined)	inactive: -3.33%
CCc1ccc(OP(C)(=O)O)cc1	inactive: 31.4%
CP(=O)(Nc1ccccn1)Oc1ccccc1 (centres undefined)	inactive: 27%
COc1ccccc1OP(C)(=O)Nc1ccc(C)cc1C (centres undefined)	inactive: -62.8%
Cc1ccc(N/C(=N/P(=O)(N2CCOCC2)N2CCOCC2)N2CCOCC2)cc1	inactive: -11.1%
NC(=O)c1cc([N+](=O)[O-])cc([N+](=O)[O-])c1N	inactive: 26.7%
CN1CCCC(OC(=O)C(c2ccccc2)c2ccccc2)C1 (centres undefined)	inactive: -33.3%
CN(C)CCOC(=O)C(O)(c1ccccc1)C1CCCC1 (centres undefined)	inactive: 3.33%
COc1ccc(OP(C)(=O)Nc2ccccn2)cc1 (centres undefined)	inactive: -16.1%
